{"source": "paper PMC7419010", "about": "(PLoS Pathogens, 2020)", "key": {"Lsa-nAChR1 (α1α2β1β2)": {"molecular_target": "Lsa-nAChR1 (α1α2β1β2) (Lepeophtheirus salmonis, UniProt A0A7S5PZ05+A0A7S5Q3W4+A0A7S5Q7H3+A0A7S5U9A3)", "test": "cell-based", "description": "(§1) Capped cRNAs were synthesized (T7 mMessage mMachine kit, Ambion, Austin, TX, USA) from the linearized vectors containing the different subunits according to the manufacturer’s protocol. cRNA samples were stored at -80°C until use. Oocytes were ordered from Ecocyte (Germany). Oocytes were microinjected using a Roboinject automatic injection system (Multi Channel Systems, Reutlingen, Germany) with 15–25 nl of cRNA solution (30–300 ng/μl per subunit) and then incubated at 18°C in sterile filtered Barth solution containing: NaCl (88 mM), KCl (1 mM), NaHCO3 (2.4 mM), HEPES (10 mM, pH 7.5), MgSO4·7H2O (0.82 mM), Ca(NO3)2·4H2O (0.33 mM), CaCl2·6H2O (0.41 mM), at pH 7.4, and supplemented with 20 μg/ml of kanamycin, 100 U/ml benzylpenicillin and 100 μg/ml streptomycin. Recordings were made 3–5 days post-cRNA injection.\n(§2) Oocytes were impaled with two electrodes filled with 3 M KCl, and their membrane potentials were maintained at -80 mV throughout the experiment. Currents evoked by ACh or drugs were recorded using an automated process equipped with standard two-electrode voltage-clamp configuration (HiClamp, MultiChannel Systems). The principle of this system differs from standard electrophysiology because, instead of applying the compound in the perfusion, the oocyte is moved into a well from a 96-well microtiter plate containing the desired solution. Data were captured at 100 Hz, filtered at 10 Hz, and analyzed using proprietary data acquisition and analysis software running under Matlab (Mathworks Inc., Natick, MA, USA). Additional analyses were performed in Excel (Microsoft, Redmond, WA, USA). […] Concentration-activation curves were fitted with the equation: Y=100/1+10^H(logEC50−X) (1) where Y is the normalized response, logEC50 is the logarithm of the concentration of agonist eliciting half-maximal current amplitude, X is the log of dose or concentration, and H is the slope factor or Hill slope. Individual curves were standardized to the initial ACh (100 μM) application amplitude and subsequently averaged. EC50 values were determined from the mean of at least 3 or more cells.\n(§3) Dose-response curves were obtained by sequential applications for 10s of increasing concentrations of ACh or drugs to oocytes expressing Lsa-nAChR1 or Lsa-nAChR2. A total time of 90 s time was allowed between applications for the channel to recover from any desensitization. To test the antagonistic effect of DHbE (Fig 5) and for the screening protocol (Fig 6), cells that evoked a significant current with ACh were exposed to the test compounds at 10 μM respectively 1 μM using a pre-application of 45 s and co-application of 10 s with ACh (1 μM)."}, "Lsa-nAChR2 (α3β1β2)": {"molecular_target": "Lsa-nAChR2 (α3β1β2) (Lepeophtheirus salmonis, UniProt A0A7S5PZ03+A0A7S5PZ05+A0A7S5Q7H3)", "test": "cell-based", "description": "as §1, §2, §3"}}, "note": "“And” between values parts separate entries of the source, which are not always exact repeats. Identical values can stand only once.", "data": [{"molecule": "CC(=O)OCC[N+](C)(C)C", "note": "[Acetylcholine]", "values": [{"measurement": "EC50", "setting": "Lsa-nAChR1 (α1α2β1β2); EC50 (nM)", "result": 1960, "unit": "nM"}, {"measurement": "EC50", "setting": "Lsa-nAChR1 (α1α2β1β2); Mean EC50 (μM) ± SD", "result": "2110 nM and 2010 nM"}, {"measurement": "EC50", "setting": "Lsa-nAChR2 (α3β1β2); EC50 (nM)", "result": 1820, "unit": "nM"}, {"measurement": "EC50", "setting": "Lsa-nAChR2 (α3β1β2); Mean EC50 (μM) ± SD", "result": "1230 nM and 1930 nM"}, {"measurement": "EC50", "setting": "Lsa-nAChR2 (α3β1β2); calculated EC50", "result": 1830, "unit": "nM"}]}]}
